Source: ChEMBL document CHEMBL1921670, “Discovery and optimization of indole and 7-azaindoles as Rho kinase (ROCK) inhibitors (part-II)” (Bioorg Med Chem Lett, 2011)

Test: Selectivity ratio of IC50 for PKA to IC50 for ROCK2

Ratio IC50: 6000
SMILES: COc1cccc(CNC(=O)c2[nH]c3cc(-c4cn[nH]c4)ccc3c2CN2CCOCC2)c1
